Source: patent US10369134B2, “Nonracemic mixtures and uses thereof” (Sunovion Pharmaceuticals Inc., priority 2017, dated 2019)
Like-named read-outs stand apart in the source and are kept apart here.

Chains of the proteins cited; added tags and fusions are not shown.
UniProt P34969, whole entry: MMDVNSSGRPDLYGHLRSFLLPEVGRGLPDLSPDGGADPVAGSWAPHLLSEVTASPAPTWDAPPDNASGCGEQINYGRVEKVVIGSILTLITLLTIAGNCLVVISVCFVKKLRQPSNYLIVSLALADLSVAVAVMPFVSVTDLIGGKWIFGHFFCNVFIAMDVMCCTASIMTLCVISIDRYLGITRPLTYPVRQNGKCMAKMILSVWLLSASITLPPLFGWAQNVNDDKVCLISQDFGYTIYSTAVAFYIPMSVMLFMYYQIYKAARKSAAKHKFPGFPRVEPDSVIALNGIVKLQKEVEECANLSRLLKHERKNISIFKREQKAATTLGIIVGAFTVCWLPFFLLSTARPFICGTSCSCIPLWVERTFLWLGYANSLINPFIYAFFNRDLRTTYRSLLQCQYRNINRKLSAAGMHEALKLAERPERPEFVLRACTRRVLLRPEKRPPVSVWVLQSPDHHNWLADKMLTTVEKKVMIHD

Biological target: T1, Serotonin 5-HT7 receptors (Homo sapiens, UniProt P34969)
T1 construct: host or cells: CHO-K1 cells
Test: Serotonin 5-HT7 radioligand binding ([3H]LSD)

[1] = Table 5, average ± 1 standard deviation, n=3, read-out: in vitro Ki values 5-HT7

Ki (Table 4, human 5-HT7 in CHO-K1 cells, ± standard error of the mean, read-out: inhibitor constant (Ki) Serotonin 5-HT7)	Ki [1]	SMILES
89 ± 2 nM	89 ± 2 nM	CCN1CCCC1CNC(=O)c1cc(S(=O)(=O)CC)c(N)cc1OC (racemic) [racemic amisulpride, 4-amino-N-[(1-ethylpyrrolidin-2-yl)methyl]-5-ethylsulfonyl-2-methoxy-benzamide, reference compound]
–	47 ± 4 nM	CCN1CCC[C@@H]1CNC(=O)c1cc(S(=O)(=O)CC)c(N)cc1OC [(R)-amisulpride, R-4-Amino-N-[(1-ethyl-2-pyrrolidinyl)methyl]-5-(ethylsulfonyl)-2-methoxybenzamide]
–	1860 nM	CCN1CCC[C@H]1CNC(=O)c1cc(S(=O)(=O)CC)c(N)cc1OC [(S)-amisulpride, S-4-Amino-N-[(1-ethyl-2-pyrrolidinyl)methyl]-5-(ethylsulfonyl)-2-methoxybenzamide]
